# Assay results from patent US20230212164A1, “ANNULATED 2-AMINO-3-CYANO THIOPHENES AND DERIVATIVES FOR THE TREATMENT OF CANCER” (BOEHRINGER INGELHEIM INTERNATIONAL GMBH, priority 2020, published 2023).
# Amino acid sequences for entries named in this document (tags omitted). Residues count along the entry.
# UniProt P01116, whole entry G12C: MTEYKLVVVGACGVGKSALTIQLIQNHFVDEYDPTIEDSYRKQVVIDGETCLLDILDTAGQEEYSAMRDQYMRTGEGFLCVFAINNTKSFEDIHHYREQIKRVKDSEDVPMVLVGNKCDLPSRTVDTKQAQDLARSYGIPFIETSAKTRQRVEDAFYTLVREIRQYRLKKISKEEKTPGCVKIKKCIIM
# UniProt P01116, 1-169 isoform 2 C118S/C51S/C80L/G12C limits assumed: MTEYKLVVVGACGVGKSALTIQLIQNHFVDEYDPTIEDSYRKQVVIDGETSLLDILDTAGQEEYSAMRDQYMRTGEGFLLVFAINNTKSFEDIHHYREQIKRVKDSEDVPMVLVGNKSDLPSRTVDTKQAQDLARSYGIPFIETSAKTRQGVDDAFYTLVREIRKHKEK
# What was measured:
# [1] = biological target: protein-protein interaction between SOS1 and KRAS G12C (Homo sapiens, UniProt P01116, C118S/C51S/C80L/G12C); assay: KRAS::SOS1 AlphaScreen binding assay; details: read-out: IC50 G12C::SOS1, Table 36
# [2] = system: pERK (Thr202/Tyr204) in NCI-H358_Cas9_SOS2 (SOS2 knocked); assay: ERK phosphorylation assay 2 (AlphaLISA SureFire Ultra p-ERK1/2); details: read-out: IC50 H358 pERK, ERK phosphorylation assay 2 (values marked with *)
# [3] = biological target: KRASG12-dependent Ba/F3 cells (Homo sapiens, UniProt P01116, G12C, cells depend on it); assay: Ba/F3 cell model proliferation assay (AlamarBlue, 72 h); type: cell-based; details: read-out: IC50 Ba/F3 KRASG12C, Ba/F3 cells transduced with KRASG12C
compound,measurement,setting,value
C=CC(=O)N1CC2CC1CN2c1cc(-c2noc([C@@]3(C)CCCc4sc(N)c(C#N)c43)n2)nc(O[C@@H](C)[C@@H]2CCCN2C)n1 (stereo partly drawn),pIC50,[1],8.80
same,pIC50,[2],7.22
same,GI50,[3],18.7 nM

# pIC50: −log10 of the molar value.
